Each structure is given as a SMILES string.

In the assay the test system is H209-T small cell lung cancer xenografts. The experiment in a line: H209-T intracranial tumor model. The note with it: Compound B 2.73 mg/kg BID; TMZ 50 mg/kg; vehicle 22.5 days. The assay is classed as in vivo, nude mice. An excerpt: H209-T is a TMZ-resistant cell line generated by treating H209-xenografted tumors with multiple cycles of TMZ in vivo.

Take `Cn1nnc2c(C(N)=O)ncn2c1=O` [TMZ, temozolomide]: the median survival was determined as 26.5 days.

`C[C@]12CCCN1CC1=NNC(=O)c3cc(F)cc4[nH]c2c1c34` [Compound B, (R)-2-fluoro-10a-methyl-7,8,9,10,10a,11-hexahydro-5,6,7a,11-tetraazacyclohepta[def]cyclopenta[a]fluoren-4(5H)-one sesqui-hydrate]: the median survival was determined as 24 days.

(Values after patent publication US20200155567A1, “TREATMENT OF CANCERS USING A COMBINATION COMPRISING PARP INHIBITORS, TEMOZOLOMIDE AND/OR RADIATION THERAPY” (BEIGENE, LTD., priority 2017, published 2020).)
